{"source": "paper PMC8758481", "about": "“Astroglial tracer BU99008 detects multiple binding sites in Alzheimer’s disease brain” (Molecular Psychiatry, 2021)", "target": "imidazoline-2 binding sites (I2BS)", "assay": "^3H-BU99008 competition binding assay with unlabelled ligands in temporal cortex brain homogenate", "design": "species or system human", "conditions": "for pIC50: vs 1 nM ^3H-BU99008, two-site fit; for proportion of Low-affinity (LA; 10^-7 to -6 M) binding sites / proportion of Super high-affinity (SH; 10^-13 to -11 M) binding sites: ^3H-BU99008 competition", "description": "After 1 h incubation a similar protocol as saturation binding assay was done and the binding was quantified using the scintillation counter.\nThe competition binding data was fitted and analysed using non-linear regression competitive-binding function of GraphPad Prism 8.3 software to determine IC50 (half-maximal inhibitory concentration) values.", "note": "pIC50: −log10 of the molar value. Read-outs that look alike come from different tables or passages of the source.", "data": [{"smiles": "C#CCN(C)[C@H](C)Cc1ccccc1", "note": "[deprenyl, (R)-(-)-Deprenyl]", "values": [{"measurement": "pIC50", "setting": "AD temporal cortex, read-out: IC50_1", "result": 10.92}, {"measurement": "pIC50", "setting": "AD temporal cortex, read-out: IC50_2", "result": 6.03}, {"measurement": "proportion of Low-affinity (LA; 10^-7 to -6 M) binding sites", "setting": "AD", "result": 50, "unit": "%"}, {"measurement": "proportion of Super high-affinity (SH; 10^-13 to -11 M) binding sites", "setting": "AD", "result": "~ 50%"}, {"measurement": "pIC50", "setting": "CN temporal cortex, read-out: IC50_2", "result": 5.87}, {"measurement": "proportion of Low-affinity (LA; 10^-7 to -6 M) binding sites", "setting": "CN", "result": 50, "unit": "%"}, {"measurement": "proportion of Super high-affinity (SH; 10^-13 to -11 M) binding sites", "setting": "CN", "result": "~ 50%"}]}]}
